Values quoted from earlier work as cited in patent publication US20220298038A1, “A METHOD FOR DISRUPTING BIOFILMS IN WASTEWATER SYSTEMS” (GRENOF PTY LTD, priority 2019, published 2022).

Tests used:
[1] = cited from earlier work
[2] = standard oxidation potential (at pH 7); cited from earlier work
[3] = discrete compounds (Yu Ran Luo); cited from earlier work

Compound	Oxidation Potential [2]	also measured
O=C(OO)c1ccccc1	–	solubility in cold water [1]: slightly soluble
Hydroxy Radical	2.8 eV	–
Potassium Permanganate	1.68 eV	–
dimethyl peroxide	–	O—O Bond Dissociation Energy [3]: 37.6 ± 2.01 kcal/mol
